Values of other authors, collected in article PMC11634579, “Network pharmacology, experimental validation and pharmacokinetics integrated strategy to reveal pharmacological mechanism of goutengsan on methamphetamine dependence” (Frontiers in Pharmacology, 2024).

Design: method as in Ru et al., 2014
Conditions: obtained from TCMSP database; ref Ru et al., 2014; cited from earlier work
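For BBB (blood–brain–barrier) in this document: unitless TCMSP predicted score with screening cut-off BBB at least 0.3.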

**Q.** Which results are given for Alexandrine-qt?
**A.** BBB (blood–brain–barrier): 0.88; OB% (oral bioavailability): 36.91%

**Q.** For Euchrenone, which “BBB (blood–brain–barrier)” value is on record?
**A.** 0.39

**Q.** And the “OB% (oral bioavailability)” value?
**A.** 30.29%
